# Yeast mating assay B: variants of the scFv Ab-14

Values reported by Li et al. 2023, doi:10.1038/s41467-023-39022-2 (FLAb copy).

Antigen: PDVDLGDISGINAS, a 14-residue peptide of the SARS-CoV-2 spike HR2 region.

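The starting antibody came from a phage panning campaign against this peptide. This is the validation round: designs drawn from the data on random variants, tested in the same kind of assay. Their group label is 14L_GP_Gen (GP: Gaussian process model; Gen: genetic algorithm; a sequence that several methods proposed may carry one label only). The assay is AlphaSeq: two haploid yeast populations carry antibody and antigen on their surface. Pairs that bind mate more often; barcode pairs of the diploids are counted by sequencing. Scores were corrected for input abundance and mapped to Kd with protein pairs of known affinity run in the same pool. There are six technical replicates.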

Each scFv is VH, a (GGGGS)3 linker, VL, as in the parent Ab-14, and differs from it in the CDRs of the light chain only.
VH: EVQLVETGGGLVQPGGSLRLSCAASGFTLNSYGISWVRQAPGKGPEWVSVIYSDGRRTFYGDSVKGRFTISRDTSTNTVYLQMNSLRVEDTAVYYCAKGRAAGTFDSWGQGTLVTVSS
VL: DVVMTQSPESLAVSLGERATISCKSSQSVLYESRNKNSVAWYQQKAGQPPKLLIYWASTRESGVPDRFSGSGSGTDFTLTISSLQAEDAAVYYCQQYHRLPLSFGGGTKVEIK

The parent's light chain CDRs are KSSQSVLYESRNKNSVA, WASTRES, QQYHRLPLS; each variant's own CDRs replace them letter for letter.
Values are log10 of the apparent Kd in nM; lower means stronger binding.
Where no diploid with the target was found in that replicate, the entry reads "n.d.": below detection, most likely a poor binder, though not proof of it.
Three control strains display no target. For all light chain designs, 4% of the pairings with them gave a signal, with a median of 2.64 and one signal in twenty below 1.59, so weak values seen in few replicates may be background. For each scFv, signals with the empty controls are counted beside the result, with their mean in brackets.
The authors averaged sequences with at least three values out of six and counted those with two or fewer as poor binders.
A sequence measured in both rounds can read differently, since the two assays cover different ranges.

CDR-L1 | CDR-L2 | CDR-L3 | log10 Kd (nM) by replicate | control signals
KLSQSVLYESRNKNSVA | NASTRYS | QQYHRLPLS | 0.32 / 0.00 / 0.10 / -0.13 / 0.01 / 0.17 | 1/18 (3.29)
KFSQSVLMESRNKNSVA | EASTRES | QQYHRLPLS | 0.00 / 0.01 / -0.11 / -0.21 / -0.22 / 0.06 | 3/18 (2.85)
KVSQSVLYESRNKNSVA | NASKRES | QQYHRLPLS | -0.12 / -0.25 / -0.33 / -0.41 / -0.34 / -0.21 | 0/18
KLQQSMPYESRNKNSVA | NASTRES | QQYHRLPLS | 0.51 / 0.23 / 0.24 / 0.12 / 0.21 / 0.41 | 1/18 (3.00)
KISQSDLYESRNKNSVA | EASTRES | QQYHRLPLS | -0.19 / -0.15 / -0.34 / -0.26 / -0.32 / -0.20 | 0/18
KLSQSELYESRNKNSVA | DASQRLS | QQYHRLPLS | -0.39 / -0.30 / -0.45 / -0.57 / -0.50 / -0.29 | 3/18 (2.90)
KLSQSFLYESRNKNSVA | NASYRES | QQYHRLPLS | -0.18 / -0.57 / 0.45 / n.d. / n.d. / 0.94 | 0/18
KLQQSMEYESRNKNSVA | NASTRLS | QQYHRLPLS | 0.22 / 0.24 / 0.25 / 0.21 / -0.07 / 0.19 | 4/18 (2.69)
KLQQSYLYESRNKNSVA | NASTRCS | QQYHRLPLS | -0.06 / -0.21 / -0.11 / -0.30 / 0.01 / -0.02 | 0/18
KLPQSVLYESRNPNSVA | NASTRES | QQYHRLPLS | -0.23 / -0.25 / -0.24 / -0.46 / -0.15 / -0.25 | 3/18 (2.88)
KLSQSEGYESRNKNSVA | NASQRES | QQYHRLPLS | 0.57 / 0.36 / 0.24 / 0.17 / 0.04 / 0.48 | 4/18 (2.81)
KLSQSDLYESRNKNSVA | EASTRSS | QQYHRLPLS | 0.74 / 0.72 / 0.92 / 0.55 / 0.63 / 0.96 | 0/18
KLSQSKLYESRNKNSVA | DASTRES | QQYHRLPLS | -0.07 / -0.16 / -0.37 / -0.21 / -0.31 / -0.12 | 1/18 (1.94)
KLSQSSLYESRNKNSVA | NASTRCS | QQYHRLPLS | 0.18 / -0.04 / 0.27 / -0.06 / 0.17 / 0.18 | 2/18 (3.46)
KLPQSQLYESRNKNSVA | AASTRES | QQYHRLPLS | 0.46 / 0.10 / 0.12 / 0.15 / 0.16 / 0.44 | 2/18 (2.56)
KLSQSVLYESRNKNSVA | NASQRMS | QQYHRLPLS | 0.13 / 0.37 / -0.18 / -0.04 / -0.08 / 0.21 | 0/18
KLSQSWLYESRNKNNVA | DASQRES | QQYHRLPLS | -0.46 / -0.50 / -0.39 / -0.50 / -0.24 / -0.30 | 0/18
KLSQSALYESRNKNSVA | NASTRES | QQYHRLPLS | 0.04 / -0.11 / -0.23 / -0.35 / -0.17 / -0.14 | 1/18 (1.95)
KLSQSWMYESRNKNSVA | NASTRES | QQYHRLPLS | -0.54 / -0.40 / -0.70 / -1.10 / -0.83 / -0.86 | 0/18
KLSQSVLYESRNKNSVA | GASQRES | QDYHRLPLS | 0.09 / -0.08 / -0.21 / -0.26 / -0.31 / -0.08 | 1/18 (2.11)
KLSQSVLYESRMKNSVA | NASTREV | QQYHRLPLS | 0.31 / -0.02 / 0.05 / -0.08 / 0.05 / 0.21 | 0/18
KLQQSELYESRNKNSVA | NASTRME | QQYHRLPLS | -0.14 / -0.22 / -0.20 / -0.34 / -0.09 / -0.17 | 3/18 (2.94)
KLSQSYLYESRNKNSVA | NASQRES | QQYHRLPLS | 0.20 / -0.20 / -0.29 / -0.12 / -0.45 / -0.02 | 2/18 (2.27)
KLQQSFLYESRNKNSVA | NASTRES | QDYHRLPLS | 0.00 / 0.08 / -0.16 / -0.08 / 0.16 / 0.08 | 0/18
KLPQSELYESRMKNSVA | NASTRES | QQYHRLPLS | 0.15 / 0.10 / -0.08 / -0.24 / 0.08 / 0.13 | 1/18 (1.96)
KLSQSVLYEERNKNSVA | NASQRES | QQYHRLPLS | -0.34 / -0.46 / -0.38 / -0.60 / -0.56 / -0.31 | 0/18
KLSQSMDYESRNKNSVA | NASTRLS | QQYHRLPLS | 0.14 / -0.12 / -0.09 / 0.09 / -0.16 / 0.01 | 3/18 (2.42)
KLSQSELYESRNKNSVA | EASYRES | QQYHRLPLS | 0.22 / 0.12 / 0.51 / 0.03 / 0.09 / -0.01 | 0/18
KLSQSVLYESRNKNSVA | DASQRES | QQYHRLPLS | 0.66 / -0.35 / -0.34 / -1.01 / -0.23 / -0.66 | 0/18
KVSQSELYESRNKWSVA | NASTRES | QQYHRLPLS | 0.36 / 0.10 / 0.08 / 0.02 / -0.11 / 0.47 | 3/18 (3.04)
KLSQSWLYESRNKNNVA | GASQRES | QQYHRLPLS | -0.06 / -0.06 / -0.35 / -0.07 / -0.38 / -0.04 | 2/18 (2.03)
KVSQQVLYESRNKNSVA | NASTRES | QQYHRLPLS | 0.06 / 0.03 / -0.06 / -0.06 / -0.04 / 0.13 | 1/18 (1.94)
KLSGSMLYESRNKNSVA | NASTRMS | QQYHRLPLS | 0.86 / 0.79 / 0.22 / 0.56 / 0.39 / 0.75 | 0/18
KLSQSVLYESRNKNSVA | AASQRES | QQYHRLPLS | 0.03 / 0.03 / -0.07 / -0.10 / -0.25 / -0.01 | 0/18
KLEQSHLYESRNKNSVA | EASTRES | QQYHRLPLS | -0.16 / -0.20 / -0.25 / -0.38 / -0.54 / -0.26 | 1/18 (3.89)
KLPQSHLYESRNKNSVA | NASTRLS | QQYHRLPLS | 2.09 / 0.86 / 1.57 / 0.79 / 0.64 / 1.36 | 0/18
KLSESVLYESRNKNSVA | NASTRES | QQYHRLPLS | -0.27 / -0.27 / -0.28 / -0.26 / -0.46 / -0.18 | 3/18 (2.92)
KLEQSWLYESRNKNSVA | NASTRSS | QQYHRLPLS | -0.17 / -0.07 / -0.31 / -0.14 / -0.24 / -0.05 | 1/18 (2.13)
KLKQSWLYESRNKNSVA | NASTRMS | QQYHRLPLS | -0.07 / 0.02 / -0.23 / -0.29 / -0.02 / 0.00 | 0/18
KLSQSDLYESRNKNAVA | GASTRES | QQYHRLPLS | -0.14 / 0.09 / 0.01 / 0.00 / -0.14 / 0.17 | 0/18
KVSQSWLYESRNKNSVA | NASTRMS | QQYHRLPLS | -0.26 / -0.31 / -0.54 / -0.38 / -0.55 / -0.43 | 2/18 (3.49)
KLEQSWPYESRNKNSVA | NASQRES | QQYHRLPLS | -0.04 / -0.21 / -0.20 / -0.24 / -0.28 / -0.04 | 1/18 (3.45)
KVQQSWLYESRNKNAVA | NASTRES | QQYHRLPLS | -0.22 / -0.31 / -0.29 / -0.50 / -0.41 / -0.09 | 1/18 (2.23)
KLSGSFLYESRNKNSVA | EASTRES | QQYHRLPLS | 0.11 / -0.27 / -0.11 / -0.36 / -0.07 / -0.07 | 1/18 (2.55)
KLPQSVLYESRNKNSVA | NASTRYS | QQYHRLPLS | -0.20 / -0.09 / -0.19 / -0.25 / -0.22 / -0.03 | 1/18 (2.31)
KLSQSHLYESRNKNSVA | HASTRCS | QQYHRLPLS | -0.30 / -0.26 / -0.64 / -0.58 / -0.45 / -0.27 | 1/18 (2.55)
KLSQSVLYESRNSNSVA | EASTREV | QQYHRLPLS | 0.04 / -0.04 / -0.23 / -0.28 / -0.34 / -0.07 | 1/18 (3.92)
KLSQSELYESRNKNSVA | EASTRES | QAYHRLPLS | 0.93 / 0.85 / 0.84 / 0.79 / 0.75 / 1.01 | 3/18 (2.38)
KLSQSYLYESRNKNAVA | NASTRES | QQYHRLPLS | -0.23 / -0.42 / -0.49 / -0.61 / -0.35 / -0.14 | 1/18 (2.50)
KLSQSVPYEERNKNSVA | NASTRLS | QQYHRLPLS | -0.12 / -0.27 / -0.09 / -0.46 / -0.46 / -0.05 | 1/18 (2.55)
KVSQSMLYESRNKNSVA | NASTRES | QQYHRLPLQ | -0.21 / -0.18 / -0.30 / -0.34 / -0.47 / -0.29 | 0/18
KVPQSVLYESRNKNSVA | EASQRES | QQYHRLPLS | 0.13 / 0.01 / 0.05 / -0.29 / -0.54 / -0.25 | 0/18

Picked from the list: the 8 lowest averages where every replicate gave a value.

CDR-L1 | CDR-L2 | CDR-L3 | log10 Kd (nM) by replicate | control signals
KLSQSWMYESRNKNSVA | NASTRES | QQYHRLPLS | -0.54 / -0.40 / -0.70 / -1.10 / -0.83 / -0.86 | 0/18
KLSQSVLYEERNKNSVA | NASQRES | QQYHRLPLS | -0.34 / -0.46 / -0.38 / -0.60 / -0.56 / -0.31 | 0/18
KLSQSELYESRNKNSVA | DASQRLS | QQYHRLPLS | -0.39 / -0.30 / -0.45 / -0.57 / -0.50 / -0.29 | 3/18 (2.90)
KLSQSHLYESRNKNSVA | HASTRCS | QQYHRLPLS | -0.30 / -0.26 / -0.64 / -0.58 / -0.45 / -0.27 | 1/18 (2.55)
KVSQSWLYESRNKNSVA | NASTRMS | QQYHRLPLS | -0.26 / -0.31 / -0.54 / -0.38 / -0.55 / -0.43 | 2/18 (3.49)
KLSQSWLYESRNKNNVA | DASQRES | QQYHRLPLS | -0.46 / -0.50 / -0.39 / -0.50 / -0.24 / -0.30 | 0/18
KLSQSYLYESRNKNAVA | NASTRES | QQYHRLPLS | -0.23 / -0.42 / -0.49 / -0.61 / -0.35 / -0.14 | 1/18 (2.50)
KLSQSVLYESRNKNSVA | DASQRES | QQYHRLPLS | 0.66 / -0.35 / -0.34 / -1.01 / -0.23 / -0.66 | 0/18